The target in the assay is Histamine H3 receptor (Homo sapiens, UniProt Q9Y5N1). In words: Mean binding affinity for human H3 receptor.

Amino acid sequences for entries named in this document (tags omitted). A change or cut given only in a name is not applied to a line headed by its entry.
UniProt Q9Y5N1: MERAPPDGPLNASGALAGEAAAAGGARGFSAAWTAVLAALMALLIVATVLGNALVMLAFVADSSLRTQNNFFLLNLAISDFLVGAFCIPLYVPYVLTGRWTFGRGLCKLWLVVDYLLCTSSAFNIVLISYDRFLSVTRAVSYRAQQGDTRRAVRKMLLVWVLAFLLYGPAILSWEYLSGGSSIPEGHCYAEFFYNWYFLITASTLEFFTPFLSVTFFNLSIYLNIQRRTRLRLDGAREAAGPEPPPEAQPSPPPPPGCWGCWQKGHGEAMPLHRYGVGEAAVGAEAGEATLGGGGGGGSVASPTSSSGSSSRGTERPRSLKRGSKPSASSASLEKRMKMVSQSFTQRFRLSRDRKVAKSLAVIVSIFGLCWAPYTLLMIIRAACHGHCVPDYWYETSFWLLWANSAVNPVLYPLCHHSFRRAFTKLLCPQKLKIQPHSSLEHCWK

In turn, `N#Cc1ccc(OC2CCN(Cc3ccccc3)CC2)cc1` had a Ki of 5.37 µM.

`CN1CCC(Oc2ccc(C#N)cc2)CC1`: the Ki is 4.27 µM. The Ki values of the last two molecules are within 1.5-fold of each other.

As for `CC(C)N1CCC(Oc2ccc(C#N)cc2)CC1`, the affinity, expressed as Ki, was 0.0282 µM.

Values taken from ChEMBL document CHEMBL1143554, “4-phenoxypiperidines: potent, conformationally restricted, non-imidazole histamine H3 antagonists” (J Med Chem, 2005).
